Some tests of the compounds listed are not included; inactive here does not mean inactive elsewhere.
Biological target: Neuronal acetylcholine receptor subunit alpha-7 (Homo sapiens, UniProt P36544)
Experiment: Antagonist activity at human alpha7 nAChR expressed in Xenopus oocyte assessed as inhibition of ACh-induced current at 10 uM after 30 secs by electrophysiological assay
Format: functional

The chains behind the UniProt entries cited, without tags or fusion partners. Residues count along the entry.
UniProt P36544, 23-502 limits assumed: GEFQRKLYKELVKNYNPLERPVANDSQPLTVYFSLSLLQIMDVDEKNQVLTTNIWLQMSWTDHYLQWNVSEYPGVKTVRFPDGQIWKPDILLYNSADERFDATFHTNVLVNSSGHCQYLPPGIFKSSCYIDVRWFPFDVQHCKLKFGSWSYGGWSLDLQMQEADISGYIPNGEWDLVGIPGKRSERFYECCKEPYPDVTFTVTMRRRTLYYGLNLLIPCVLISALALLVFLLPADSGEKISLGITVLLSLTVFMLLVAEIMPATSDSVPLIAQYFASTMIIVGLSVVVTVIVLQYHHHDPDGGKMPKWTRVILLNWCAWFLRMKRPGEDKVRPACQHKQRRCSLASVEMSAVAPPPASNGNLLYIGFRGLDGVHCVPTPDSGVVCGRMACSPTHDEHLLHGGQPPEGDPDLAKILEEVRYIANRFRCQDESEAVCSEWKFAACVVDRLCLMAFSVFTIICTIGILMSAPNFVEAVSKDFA

Row | SMILES | inhibition
1 | O=C(N[C@@H]1CCCC[C@H]1N1CCCCC1)c1ccc2ncsc2c1 | 79%
2 | O=C(N[C@@H]1CCCC[C@H]1N1CCCCC1)c1ccc(Cl)cc1 | 64%

— ChEMBL document CHEMBL2062445, “Synthesis and nicotinic receptor activity of chemical space analogues of N-(3R)-1-azabicyclo[2.2.2]oct-3-yl-4-chlorobenzamide (PNU-282,987) and 1,4-diazabicyclo[3.2.2]nonane-4-carboxylic acid 4-bromophenyl ester (SSR180711)” (J Med Chem, 2012)
